In paper PMC12363342, “Investigating the N-terminal linker histone H1 subtypes as substrates for JmjC lysine demethylases” (RSC Chemical Biology, 2025):

Experiments:
KDM6B = experiment: LC-MS demethylation activity assay, KDM6B; type: biochemical, human; details: 2 μM KDM, 10 μM H1/H3 peptide, 10 μM FAS, 100 μM LAA, 20 μM 2OG, 50 mM HEPES pH 7.5, 2 h, room temperature, T (tri-) initial methylation state
Experimental: (§1) The substrate specificity of JmjC KDMs for H1 was examined using liquid chromatography coupled to mass spectrometry (LC-MS) assays. The H1 peptides (10 μM) were incubated with the recombinant KDM (2 μM) in HEPES buffer at pH 7.5 at room temperature for 2 h, in the presence of ferrous(II) ammonium sulfate (FAS, 10 μM), sodium ascorbate (LAA, 100 μM) and 2OG (20 μM), and then quenched with formic acid. N^ε-Methylated H3K9 and H3K36 peptides were used as positive controls (Fig. 3–5 and Fig. S2–S6).[26]
(§2) The catalytic domains of the JmjC KDMs used were recombinantly produced as reported in either Escherichia coli (KDM4AM1-L359,[38] KDM4DM1-L359,[39] KDM4EM1-R336,[30] KDM6BD1141–E1590[40] and KDM3CL2157-L2500) or Sf9 cells (KDM3AT515–S1317, KDM3B882–1761, and KDM5DM1-D775) as N-terminally His6-tagged proteins. […] To produce proteins, DNA sequences encoding for KDM3A, KDM3B and KDM5D were inserted into the pFB-LIC vector, containing a TEV-protease cleavable N-terminal 6x-histidine tag via ligation independent cloning (LIC). The resultant plasmids were transformed into baculovirus and Sf9 cells ([…]) which were infected with the virus stock. The cells were grown at 27 °C and 90 rpm for 70 h. Cells were then harvested and suspended in 100 mL of lysis buffer (50 mM HEPES-NaOH, pH 7.4, 500 mM NaCl, 20 mM imidazole, 0.5 mM Tris (2-carboxyethyl)phosphine (TCEP), 5% (v/v) glycerol). […] The supernatant was loaded onto a Ni-NTA gravity column, washed with 10 column volume of lysis buffer and eluted using the elution buffer (50 mM HEPES-NaOH, pH 7.4, 500 mM NaCl, 300 mM imidazole, 0.5 mM TCEP, 5% (v/v) glycerol). The eluted protein was further purified using S200 gel filtration column chromatography (50 mM HEPES-NaOH, pH 7.4, 150 mM NaCl, 0.5 mM TCEP and 5% glycerol). Protein purity was analysed by SDS-PAGE and further confirmed by mass spectrometry. Selected fractions were pooled, concentrated and stored at −80 °C.
(§3) All reagents were purchased from Sigma Aldrich and were of the highest grade available. Ferrous(II) ammonium sulfate (FAS) solutions were prepared freshly by dissolving FAS to 400 mM in 20 mM HCl with subsequent dilution to 1 mM using deionized water. Fresh 2OG (10 mM) and LAA (50 mM) solutions were prepared by dissolving the solids in deionised water. All enzyme reactions were performed in 384-well plates (Greiner Bio-One) with a final reaction volume of 50 μL. Substrate mixtures contained 50 mM HEPES pH 7.5, LAA (100 μM), FAS (10 μM), 2OG (20 μM) and an H1 isoform peptide (10 μM). Reactions were initiated by the addition of enzyme to a final concentration of 2.0 μM. After 2 h, the reactions were stopped by the addition of 5 μL of 10% (v/v) LC-MS grade formic acid (Fisher Scientific) to a final concentration of 1% (v/v). […]

KDM5D = experiment: LC-MS demethylation activity assay, KDM5D; type: biochemical, human; details: 2 μM KDM, 10 μM H1/H3 peptide, 10 μM FAS, 100 μM LAA, 20 μM 2OG, 50 mM HEPES pH 7.5, 2 h, room temperature, T (tri-) initial methylation state
Experimental: as §1, §2, §3

KDM3A = experiment: LC-MS demethylation activity assay, KDM3A; type: biochemical, human; details: 2 μM KDM, 10 μM H1/H3 peptide, 10 μM FAS, 100 μM LAA, 20 μM 2OG, 50 mM HEPES pH 7.5, 2 h, room temperature, T (tri-) initial methylation state
Experimental: as §1, §2, §3

KDM4D = molecular target: T1, KDM4D (Homo sapiens, UniProt Q6B0I6); experiment: LC-MS demethylation activity assay, KDM4D; type: biochemical; details: room temperature
T1 construct: KDM4AM1-L359,[38]; KDM4DM1-L359,[39]; KDM4EM1-R336,[30]; His6 (N); made in house; host or cells: Escherichia coli
T1 sequence (Q6B0I6 1-359): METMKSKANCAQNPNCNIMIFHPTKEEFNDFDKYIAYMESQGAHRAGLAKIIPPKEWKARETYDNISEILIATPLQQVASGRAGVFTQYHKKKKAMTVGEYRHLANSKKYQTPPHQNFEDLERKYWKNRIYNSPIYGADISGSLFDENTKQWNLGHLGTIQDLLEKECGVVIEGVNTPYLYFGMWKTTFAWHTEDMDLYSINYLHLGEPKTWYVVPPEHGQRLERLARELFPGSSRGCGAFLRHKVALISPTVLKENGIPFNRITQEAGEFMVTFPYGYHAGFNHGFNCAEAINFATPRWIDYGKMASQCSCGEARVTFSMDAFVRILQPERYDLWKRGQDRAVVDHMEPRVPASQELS
Experimental: as §1, §2
All reagents were purchased from Sigma Aldrich and were of the highest grade available. Ferrous(II) ammonium sulfate (FAS) solutions were prepared freshly by dissolving FAS to 400 mM in 20 mM HCl with subsequent dilution to 1 mM using deionized water. Fresh 2OG (10 mM) and LAA (50 mM) solutions were prepared by dissolving the solids in deionised water. All enzyme reactions were performed in 384-well plates (Greiner Bio-One) with a final reaction volume of 50 μL. Substrate mixtures contained 50 mM HEPES pH 7.5, LAA (100 μM), FAS (10 μM), 2OG (20 μM) and an H1 isoform peptide (10 μM). Reactions were initiated by the addition of enzyme to a final concentration of 2.0 μM. After 2 h, the reactions were stopped by the addition of 5 μL of 10% (v/v) LC-MS grade formic acid (Fisher Scientific) to a final concentration of 1% (v/v). Product analyses were performed by liquid chromatography-mass spectrometry (LC-MS) using an Agilent 1290 infinity II LC system equipped with an Agilent 1290 multisampler and an Agilent 1290 high speed pump and connected to an Agilent 6550 accurate mass iFunnel quadrupole time of flight (Q-TOF) mass spectrometer. 1 μL of the reaction mixture was injected onto a 1.8 μm × 2.1 × 50 mm ZORBAX RRHD Eclipse Plus C18 column (Agilent). Solvent A consisted of HPLC grade water containing 0.1% (v/v) formic acid and solvent B consisted of MeCN containing 0.1% (v/v) formic acid. Peptides were separated using a stepwise gradient (0 min – 95% solvent A, 1.0 min – 80% solvent A, 3.0 min – 45% solvent A, 4.0 min – 45% solvent A, 5.0 min – 0% solvent A, 6.0 min – 0% solvent A, 7.0 min – 95% solvent A). This was followed by a 3 min post-run with 95% solvent A to re-equilibrate the column. All flow rates were 0.2 mL min^−1.

KDM3C = experiment: LC-MS demethylation activity assay, KDM3C; type: biochemical, human; details: 2 μM KDM, 10 μM H1/H3 peptide, 10 μM FAS, 100 μM LAA, 20 μM 2OG, 50 mM HEPES pH 7.5, 2 h, room temperature, T (tri-) initial methylation state
Experimental: as §1, §2, §3

[1] = 2 μM KDM4D, 10 μM peptide, standard conditions, 2 h

ARTKQTARKme3STGGKA [Peptide H3K9me3, histone H3 residues 1-15 peptide with tri-methylated K9; commercial positive control, reference compound]
KDM6B demethylation activity, T (KDM6B): ● [red]
KDM5D demethylation activity, T (KDM5D): ● [red]
KDM3A demethylation activity, T (KDM3A): ● [red]
substrate conversion (demethylation) by KDM4D (KDM4D; 2 μM KDM4D, 10 μM peptide, 10 μM FAS, 100 μM LAA, 20 μM 2OG, HEPES pH 7.5, 2 h): ~53%
di-methylated product formed by KDM4D (KDM4D; [1]): ~35%
mono-methylated product formed by KDM4D (KDM4D; [1]): ~18%
KDM4D demethylation activity, T (KDM4D; 2 μM KDM, 10 μM H1/H3 peptide, 10 μM FAS, 100 μM LAA, 20 μM 2OG, 50 mM HEPES pH 7.5, 2 h, T (tri-) initial methylation state): ● [green] (green dots indicate good demethylation (>50% conversion))
KDM3C demethylation activity, T (KDM3C): ● [red]
